Key:
[1] = biological target: T1, Neuronal acetylcholine receptor subunit alpha-7 (Rattus norvegicus, UniProt Q05941); test: Agonist activity at rat alpha7 nAChR expressed in rat GH4C1 cells by whole cell patch-clamp electrophysiology; assay type: functional, cell-based, GH4-C1
[2] = biological target: T1, Neuronal acetylcholine receptor subunit alpha-7; test: Displacement of [3H]epibatidine from rat alpha7 nAChR expressed in rat GH4C1 cells; assay type: cell-based, GH4-C1

Chains of the proteins cited; added tags and fusions are not shown.
UniProt Q05941, whole entry: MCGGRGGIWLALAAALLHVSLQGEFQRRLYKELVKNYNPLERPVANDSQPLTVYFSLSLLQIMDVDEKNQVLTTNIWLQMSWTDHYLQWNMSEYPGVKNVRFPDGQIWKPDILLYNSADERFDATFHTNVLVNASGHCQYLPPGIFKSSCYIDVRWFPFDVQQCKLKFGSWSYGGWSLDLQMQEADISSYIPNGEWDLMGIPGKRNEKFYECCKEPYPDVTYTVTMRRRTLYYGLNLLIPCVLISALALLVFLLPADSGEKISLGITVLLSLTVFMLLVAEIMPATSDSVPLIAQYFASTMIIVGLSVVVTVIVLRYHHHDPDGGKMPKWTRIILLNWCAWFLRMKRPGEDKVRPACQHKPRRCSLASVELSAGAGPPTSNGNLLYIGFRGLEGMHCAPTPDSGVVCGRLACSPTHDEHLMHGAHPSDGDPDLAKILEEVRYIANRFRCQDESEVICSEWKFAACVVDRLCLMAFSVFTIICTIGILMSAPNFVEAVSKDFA

- EC50 [1]: 490 nM
- Ki [2]: 44 nM
SMILES: O=C(NCCCCN1CCCCC1)Nc1ccc(-c2ccc(F)cc2)nc1

From ChEMBL document CHEMBL1155527 (J Med Chem, 2010)
